Data reported in BindingDB's records for patent US11407721 (Amgen, 2022).

Chains of the proteins cited; added tags and fusions are not shown. Residues count along the entry.
UniProt Q00987, 1-188: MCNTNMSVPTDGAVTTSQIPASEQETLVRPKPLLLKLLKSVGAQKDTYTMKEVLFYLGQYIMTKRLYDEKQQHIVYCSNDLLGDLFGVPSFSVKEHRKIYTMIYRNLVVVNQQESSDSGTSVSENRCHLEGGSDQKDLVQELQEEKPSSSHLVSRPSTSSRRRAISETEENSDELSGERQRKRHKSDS

Target: E3 ubiquitin-protein ligase Mdm2 [1-188] (Homo sapiens, UniProt Q00987)

IC50: 19.1 µM
Compound: CN1C(=O)[C@@H](CCN2CCOCC2)O[C@H](c2ccc(Cl)cc2)[C@@H]1c1ccc(Cl)cc1 [US11407721, Example 40]
